Assay results published in patent EP4840453A1, “CANCER TREATMENT AGENT CONTAINING CLK INHIBITOR AS ACTIVE INGREDIENT” (dated 2026).

What was measured:
[1] = test system: NCI-H661; test: Cell proliferation assay (ATPlite 1Step), single agents and combination with Compound A, curve-shift and CI; 72 h culture, 120 h for EPZ-6438, JQ1, MLN-4924, MLN-7243, MPI-0479605, NMS-P715
[2] = test system: HL-60; test: as above
[3] = NCI-H661, blending ratio (Compound A : combined compound) 1:4, Fa 75
[4] = NCI-H661, Compound A + combined compound at fixed concentration 1 µM, Fa 50
[5] = blending ratio (Compound A : combined compound) 4:1, Fa 90
[6] = NCI-H661, blending ratio (Compound A : combined compound) 1:1, Fa 75
[7] = NCI-H661, blending ratio (Compound A : combined compound) 4:1, Fa 75
[8] = NCI-H661, blending ratio (Compound A : combined compound) 1:4, Fa 50
[9] = NCI-H661, blending ratio (Compound A : combined compound) 1:4, Fa 90
[10] = NCI-H661, blending ratio (Compound A : combined compound) 4:1, Fa 50
[11] = blending ratio (Compound A : combined compound) 1:1, Fa 90
[12] = Compound A + combined compound at fixed concentration 1 µM, Fa 75
[13] = Compound A + combined compound at fixed concentration 1 µM, Fa 50
[14] = blending ratio (Compound A : combined compound) 4:1, Fa 75
[15] = NCI-H661, blending ratio (Compound A : combined compound) 1:1, Fa 50

Molecule: cisplatin
- CI ([1]; NCI-H661, Compound A + combined compound at fixed concentration 0.32 µM, Fa 50): 0.92
- CI ([2]; Compound A + combined compound at fixed concentration 0.32 µM, Fa 50): 0.95
- CI ([2]; Compound A + combined compound at fixed concentration 0.32 µM, Fa 75): 0.97
- CI ([2]; Compound A + combined compound at fixed concentration 0.32 µM, Fa 90): 0.99

Molecule: COc1cccc2c1C(=O)c1c(O)c3c(c(O)c1C2=O)C[C@@](O)(C(=O)CO)C[C@@H]3O[C@H]1C[C@H](N)[C@H](O)[C@H](C)O1
- CI [1, 3]: 0.90

Molecule: O=C(c1cc(Cc2n[nH]c(=O)c3ccccc23)ccc1F)N1CCN(C(=O)C2CC2)CC1
- CI ([1]; NCI-H661, Compound A + combined compound at fixed concentration 3.2 µM, Fa 75): 0.10

Molecule: CCc1cccc(CC)c1NC(=O)c1nn(C)c2c1CCc1cnc(Nc3ccc(C(=O)NC4CCN(C)CC4)cc3OC(F)(F)F)nc1-2
- CI [1, 4]: 0.91
- CI ([1]; NCI-H661, Compound A + combined compound at fixed concentration 1 µM, Fa 75): 0.93
- CI ([1]; NCI-H661, Compound A + combined compound at fixed concentration 1 µM, Fa 90): 0.92
- CI [2, 5]: 1.07

Molecule: C[C@@H]1COCCN1c1cc(C2([S@](C)(=N)=O)CC2)nc(-c2cc[nH]c3nccc2-3)n1
- CI [1, 6]: 0.10
- CI [1, 3]: 0.10
- CI [1, 7]: 0.10

Molecule: Cc1cc(Nc2ncc(Cl)c(Nc3ccccc3S(=O)(=O)C(C)C)n2)c(OC(C)C)cc1C1CCNCC1
- CI [1, 6]: 0.56
- CI [1, 8]: 0.56
- CI [1, 9]: 0.10
- CI [1, 10]: 0.79
- CI [1, 7]: 0.50
- CI [2, 11]: 0.75

Molecule: CO[C@H]1C[C@@H]2CC[C@@H](C)[C@@](O)(O2)C(=O)C(=O)N2CCCC[C@H]2C(=O)O[C@H]([C@H](C)C[C@@H]2CC[C@@H](OCCO)[C@H](OC)C2)CC(=O)[C@H](C)/C=C(\C)[C@@H](O)[C@@H](OC)C(=O)[C@H](C)C[C@H](C)/C=C/C=C/C=C/1C
- CI ([1]; NCI-H661, Compound A + combined compound at fixed concentration 0.1 µM, Fa 50): 0.78
- CI [2, 12]: 0.77

Molecule: CC[C@@]1(O)C(=O)OCc2c1cc1n(c2=O)Cc2cc3ccccc3nc2-1
- CI [1, 9]: 0.10

Molecule: C[C@@H]1CN(CC(=O)Nc2ccc3c(c2)Cc2cccc(-c4cc(=O)cc(N5CCOCC5)o4)c2S3)C[C@H](C)O1
- CI [1, 4]: 0.81
- CI [2, 13]: 0.84
- CI [2, 12]: 0.82
- CI ([2]; Compound A + combined compound at fixed concentration 1 µM, Fa 90): 0.82

Molecule: Cc1cc(Nc2ncnc3ccc(NC4=NC(C)(C)CO4)cc23)ccc1Oc1ccn2ncnc2c1
- CI ([2]; Compound A + combined compound at fixed concentration 3.2 µM, Fa 50): 1.03
- CI ([2]; Compound A + combined compound at fixed concentration 3.2 µM, Fa 75): 0.81
- CI ([2]; Compound A + combined compound at fixed concentration 3.2 µM, Fa 90): 0.60

Molecule: CC(C)NC[C@@H](C(=O)N1CCN(c2ncnc3c2[C@H](C)C[C@H]3O)CC1)c1ccc(Cl)cc1
- CI ([1]; Compound A : combined compound 1:1, Fa 50, 72 h culture): 0.56
- CI ([1]; Compound A : combined compound 1:4, Fa 50, 72 h culture): 0.58
- CI ([1]; Compound A : combined compound 4:1, Fa 50, 72 h culture): 0.78
- CI [2, 14]: 0.86
- CI [2, 5]: 0.96

Molecule: Nc1ccn([C@@H]2O[C@H](CO)[C@@H](O)C2(F)F)c(=O)n1
- CI [1, 15]: 0.78
- CI [1, 6]: 0.10
- CI [1, 8]: 0.43
- CI [1, 3]: 0.10
- CI [1, 7]: 0.10

Molecule: CC[C@@]1(O)C(=O)OCc2c1cc1n(c2=O)Cc2cc3c(CN(C)C)c(O)ccc3nc2-1
- CI [1, 15]: 0.88
- CI ([1]; NCI-H661, blending ratio (Compound A : combined compound) 1:1, Fa 90): 0.10
- CI [1, 9]: 0.10
- CI [1, 10]: 1.07
- CI [1, 7]: 0.56
- CI ([2]; blending ratio (Compound A : combined compound) 1:1, Fa 50): 0.82
- CI ([2]; blending ratio (Compound A : combined compound) 1:1, Fa 75): 0.87
- CI [2, 11]: 0.92
- CI ([2]; blending ratio (Compound A : combined compound) 1:4, Fa 50): 0.97
- CI ([2]; blending ratio (Compound A : combined compound) 1:4, Fa 75): 0.96
- CI ([2]; blending ratio (Compound A : combined compound) 1:4, Fa 90): 0.93
- CI ([2]; blending ratio (Compound A : combined compound) 4:1, Fa 50): 0.87
- CI [2, 14]: 0.91
- CI [2, 5]: 0.95

Molecule: NS(=O)(=O)OC[C@@H]1C[C@@H](n2ccc3c(N[C@H]4CCc5ccccc54)ncnc32)C[C@@H]1O
- CI ([1]; Compound A : combined compound 1:1, Fa 90, 120 h culture): 0.31
- CI ([1]; Compound A : combined compound 1:4, Fa 75, 120 h culture): 0.30
- CI ([1]; Compound A : combined compound 1:4, Fa 90, 120 h culture): 0.43
- CI ([1]; Compound A : combined compound 4:1, Fa 75, 120 h culture): 0.63

Molecule: CS(=O)(=O)CCNCc1ccc(-c2ccc3ncnc(Nc4ccc(OCc5cccc(F)c5)c(Cl)c4)c3c2)o1
- CI [2, 13]: 0.97

Molecule: COc1cccc2c1C(=O)c1c(O)c3c(c(O)c1C2=O)C[C@@](O)(C(=O)CO)C[C@@H]3O[C@H]1C[C@H](N)[C@@H](O)[C@H](C)O1
- CI [1, 3]: 0.80

Molecule: Cn1cc(-c2cnn3c(N)c(Br)c([C@@H]4CCCNC4)nc23)cn1
- CI ([1]; NCI-H661, Compound A + combined compound at fixed concentration 3.2 µM, Fa 50): 0.91

Molecule: S=c1nc[nH]c2nc[nH]c12
- CI [2, 11]: 0.90
